Assay results as given in US10202345B2, “Substituted azaspiro(4.5)decane derivatives” (priority 2014, dated 2019).

By UniProt entry, the sequences of proteins in these tests, tags left out. Where a name states a change or a piece, a line headed by the entry shows the natural chain unless it says otherwise.
UniProt P35372, whole entry, looked up: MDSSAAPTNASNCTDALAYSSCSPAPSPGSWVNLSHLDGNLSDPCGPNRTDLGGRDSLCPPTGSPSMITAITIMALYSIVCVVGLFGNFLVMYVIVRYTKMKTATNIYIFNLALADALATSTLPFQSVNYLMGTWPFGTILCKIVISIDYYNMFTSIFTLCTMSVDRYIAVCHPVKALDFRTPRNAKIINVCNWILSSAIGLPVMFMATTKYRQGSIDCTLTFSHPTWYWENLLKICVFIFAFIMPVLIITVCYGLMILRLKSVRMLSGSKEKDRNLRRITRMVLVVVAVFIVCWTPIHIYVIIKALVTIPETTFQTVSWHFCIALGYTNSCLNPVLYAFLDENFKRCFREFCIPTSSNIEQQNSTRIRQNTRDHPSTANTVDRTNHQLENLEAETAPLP
UniProt P41146: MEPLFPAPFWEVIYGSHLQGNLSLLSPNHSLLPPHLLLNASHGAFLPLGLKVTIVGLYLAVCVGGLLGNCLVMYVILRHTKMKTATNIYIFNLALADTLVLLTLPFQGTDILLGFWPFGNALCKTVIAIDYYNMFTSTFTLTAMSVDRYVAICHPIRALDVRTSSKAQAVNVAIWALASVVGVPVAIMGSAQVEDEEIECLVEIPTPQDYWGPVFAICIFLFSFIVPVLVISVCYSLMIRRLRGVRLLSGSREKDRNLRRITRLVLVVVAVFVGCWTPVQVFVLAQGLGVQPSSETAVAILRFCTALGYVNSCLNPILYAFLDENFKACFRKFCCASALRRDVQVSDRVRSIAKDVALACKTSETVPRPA

What was measured:
[1] = target: human μ opiate receptor (Homo sapiens, UniProt P35372); test: μ opiate receptor binding assay with [3H]-naloxone (WGA-SPA beads); conditions: for Ki: read-out: Ki (μ) mean [μm], mean; for % inhibition (μ) [1 μM]: test concentration 1 μM
[2] = target: ORL1 receptor (Homo sapiens, UniProt P41146); test: ORL1 receptor binding assay with 3H-nociceptin/orphanin FQ (WGA-SPA beads); conditions: for Ki: read-out: Ki (ORL1) mean, mean; for % inhibition (ORL1) [1 μM]: test concentration 1 μM

| SMILES | Ki [1] | % inhibition (μ) [1 μM] [1] | Ki [2] | % inhibition (ORL1) [1 μM] [2] |
| --- | --- | --- | --- | --- |
| CN(C)C1(c2ccccc2)CCC2(CCN(C(=O)C(C)(C)O)C2)CC1 (centres unmarked) | 82 nM | 79% | 230 nM | 46% |
| COCC(C)(C)C(=O)N1CCC2(CCC(c3ccc(Cl)s3)(N(C)C)CC2)C1 (centres unmarked) | 1.6 nM | 99% | 98 nM | 55% |
| CN(C)C1(c2cccs2)CCC2(CCN(C(=O)CC3COC3)C2)CC1 (centres unmarked) | 3.05 nM | 99.33% | 19.7 nM | 82.5% |
| CC(C)C(=O)N1CCC2(CCC(c3ccccc3)(N(C)C)CC2)C1 (centres unmarked) | 24 nM | 92% | 59.5 nM | 66% |
| Cc1ccc(C2(N(C)C)CCC3(CCN(C(=O)C(C)C)C3)CC2)s1 (centres unmarked) | 45 nM | 86% | 150 nM | 26% |
| CN(C)C1(c2cccs2)CCC2(CCN(C(=O)C3CC3)C2)CC1 (centres unmarked) | 11.5 nM | 80.5% | 85 nM | 48% |
| CN(C)C1(c2ccccc2)CCC2(CCN(CC3(C#N)CC3)C2)CC1 (centres unmarked) | 31 nM | 93.5% | 47 nM | 82% |
| COC(C)(C)CCN1CCC2(CCC(c3ccccc3)(N(C)C)CC2)C1 (centres unmarked) | 1.55 nM | 100% | 7.3 nM | 92% |
| CCOC(C)CC(=O)N1CCC2(CCC(c3ccccc3)(N(C)C)CC2)C1 (centres unmarked) | 2.6 nM | 97.5% | 2 nM | 96.5% |
| COC(C)(C)C(=O)N1CCC2(CCC(c3cccs3)(N(C)C)CC2)C1 (centres unmarked) | 36.5 nM | 90.5% | 82.5 nM | 76% |
| CN(C)C1(c2cccs2)CCC2(CCN(CCC(C)(C)O)C2)CC1 (centres unmarked) | 2.55 nM | 98% | 3.5 nM | 94% |
| CN(C)C1(c2cccs2)CCC2(CCN(C(=O)C3COC3)C2)CC1 (centres unmarked) | 37 nM | 92% | 71.5 nM | 64% |
| CN(C)C1(c2cccs2)CCC2(CCN(C(=O)C3(C#N)CCC3)C2)CC1 (centres unmarked) | 7.15 nM | 96.5% | 20 nM | 78% |
| CN(C)C1(c2ccccc2)CCC2(CCN(CCC3(C#N)CCC3)C2)CC1 (centres unmarked) | 1.35 nM | 98% | 2.3 nM | 92.5% |
| CN(C)C1(c2ccccc2)CCC2(CCN(C(=O)C3(O)CC3)C2)CC1 (centres unmarked) | 74.5 nM | 82.5% | 185 nM | 48.5% |
| CCCC(=O)N1CCC2(CCC(CC3CCCC3)(N(C)C)CC2)C1 (centres unmarked) | 26.5 nM | 96.5% | 440 nM | 46% |
| CN(C)C1(C2CCCC2)CCC2(CC1)CC(=O)N(CCC1(C#N)CC1)C2 (centres unmarked) | 66 nM | 95% | 115 nM | 59.5% |
| CNC1(c2ccccc2)CCC2(CCN(C(=O)CC3CC3)C2)CC1 (centres unmarked) | 2.65 nM | 98.5% | 11.2 nM | 73.5% |
| CN(C)C1(c2cccs2)CCC2(CCN(CC3(O)CC3)C2)CC1 (centres unmarked) | 10.8 nM | 94.5% | 23 nM | 80% |
| Cc1ccc(C2(N(C)C)CCC3(CCN(C(=O)CC(C)C)C3)CC2)s1 (centres unmarked) | 4.8 nM | 100.5% | 27 nM | 84.5% |
| CN(C)C1(c2ccccc2)CCC2(CCN(CCC3CC3)C2)CC1 (centres unmarked) | 1.95 nM | 98% | 1.5 nM | 93% |
| CC(C)CC(=O)N1CCC2(CCC(c3ccccc3)(N(C)C)CC2)C1 (centres unmarked) | 1.35 nM | 99.5% | 0.64 nM | 95% |
| CCCCN1CCC2(CCC(c3ccccc3)(N(C)C)CC2)C1 (centres unmarked) | 6.5 nM | 93% | 9.75 nM | 80% |
| Cc1ccc(C2(N(C)C)CCC3(CCNC3)CC2)s1 (centres unmarked) | 130 nM | 79.5% |  | 57.5% |
| CCCCN1CCC2(CCC(c3ccc(F)s3)(N(C)C)CC2)C1 (centres unmarked) | 8.05 nM | 95.5% | 6.8 nM | 86.5% |
| CC(C)CN1CC2(CCC(c3cccs3)(N(C)C)CC2)CC1=O (centres unmarked) | 4.05 nM | 99.5% | 6.5 nM | 90% |
| CN(C)C1(c2ccccc2)CCC2(CCN(C(=O)CC3CCOCC3)C2)CC1 (centres unmarked) | 1.9 nM | 95% | 10 nM | 92% |
